Antibody variant affinities, Ab-14 heavy chain, assay 1

From the AlphaSeq antibody data of Engelhart et al. 2022 (doi:10.1038/s41597-022-01779-4), copy in the FLAb collection.

All variants were tested on one target, the spike HR2 peptide PDVDLGDISGINAS (SARS-CoV-2).

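The starting antibody came from a phage panning campaign against this peptide. The library (AAYL49) carries one to three amino acid substitutions per variant, with no insertions or deletions. The scFvs were displayed on barcoded MATa yeast, the peptide on MATalpha yeast. Binding brings cells together so that they mate, and sequencing counts the barcode pairs among the diploids. Each replicate has its own calibration line, from reference interactions of the BCL2 family. The assay was run in three technical replicates.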

Parent scFv Ab-14: VH joined to VL by the linker GGGGSGGGGSGGGGS. Changes lie in the heavy chain CDRs alone.
VH: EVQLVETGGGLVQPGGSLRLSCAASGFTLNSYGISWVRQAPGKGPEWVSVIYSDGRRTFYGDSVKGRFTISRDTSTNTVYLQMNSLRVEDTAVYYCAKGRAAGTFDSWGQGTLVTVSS
VL: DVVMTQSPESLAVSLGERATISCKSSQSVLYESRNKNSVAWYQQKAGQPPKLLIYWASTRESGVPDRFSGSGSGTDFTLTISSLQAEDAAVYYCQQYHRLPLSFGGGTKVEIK

Each variant is given by its three heavy chain CDRs, as the data file delimits them; those of the parent are GFTLNSYGIS, VIYSDGRRTFYGDSVK, GRAAGTFDS. Scale: log10 of Kd in nM, estimated from mating counts; low values are strong binders. Averages over replicates are reported, and they cover detected replicates only. "nd" means that the variant was in the library but no mating with the target was seen in any replicate; the authors take this as a sign of poor binding, and no number exists.

GFTKNSYGIS / VIYSNGLRTFYGDSVK / GRAAGTFDS: nd (0 of 3 replicates).
GFTLNSYGVS / VIYKKGRRTFYGDSVK / GRAAGTFDS: 4.14 (3 of 3 replicates).
GFTLNSYGIS / VIYSDGRRTFYGDSVK / GRAAGHPVS: nd (0 of 3 replicates).
GFTLNSYGIS / VIYWDGRRTFYHDSVP / GRAAGTFDS: 4.71 (1 of 3 replicates).
GFAPNSYGIS / VIYSDGRRTFYGDSVK / YRAAGTFDS: nd (0 of 3 replicates).
GFTLNSMGIS / VIGSDGYRTFYGDSVK / GRAAGTFDS: nd (0 of 3 replicates).
GFTLGSYGIS / VIYSDGYRTFYGDSVK / GRGAGTFDS: 2.75 (2 of 3 replicates).
GYTLNNYGIS / VIYSDGRRTFYGDSTK / GRAAGTFDS: 3.65 (3 of 3 replicates).
GFTLNSYGIS / VIYSDGWRTFYGDSVK / GRASGTFDW: 5.26 (3 of 3 replicates).
GFTLNSYGIS / VIYSDGRRTFYGDSYK / ERAAGTSDS: 2.52 (3 of 3 replicates).
GFTLNSYGID / VIYSPGRRTFYGDSTK / GRAAGTFDS: nd (0 of 3 replicates).
EFTLNSHGIS / VIYSDGRRTFYGDSVK / GRAAGTFDS: 2.22 (3 of 3 replicates).
GFTLNSYGIS / VIYSDGRRLFYGDSVH / GRAAGTFDS: 4.81 (1 of 3 replicates).
GFTLNSYGIS / VIYSDGRRTFYGDEVL / SRAAGTFDS: 3.26 (1 of 3 replicates).
GFTLNSYGIS / VIYSDIRRTFYGDSVK / GRAAGTFSS: nd (0 of 3 replicates).
GFTLNSYGIS / VIYSHGRWTFYGDSVK / GRAIGTFDS: nd (0 of 3 replicates).
GFTLNSYGIS / VIYSDGRRTFYGGSVC / GRAAGTFDS: 2.86 (3 of 3 replicates).
GFTLNSYGIS / VIYSDGRRTFYGDSVR / ARMAGTFDS: nd (0 of 3 replicates).
GFTLNSYPIS / VMYSDGRRTFYGQSVK / GRAAGTFDS: nd (0 of 3 replicates).
GFTLNSYGVR / SIYSDGRRTFYGDSVK / GRAAGTFDS: 4.95 (2 of 3 replicates).
GFTLNSYGIS / VIYADGRRTFTGDSVK / GQAAGTFDS: 2.30 (3 of 3 replicates).
GFTLNSYGIK / VIYFDGRRTFYGDRVK / GRAAGTFDS: nd (0 of 3 replicates).
GFTLNSAGIS / VIYSDGRRPFYGDSVK / GRAAGTKDS: 4.44 (1 of 3 replicates).
GYTLNSYGDS / VIYSDGRRTFYGNSVK / GRAAGTFDS: 3.36 (1 of 3 replicates).
GFTLNSYGIS / VIYSDGRRTFYGDIVK / GRLAGTFDQ: nd (0 of 3 replicates).
GFTLNSYGIS / VIYSDGRRTFFGDIVK / GRAAGTKDS: nd (0 of 3 replicates).
GFTLNSYQIS / VIYSDERRTFYGDSVK / GRHAGTFDS: nd (0 of 3 replicates).
GFTLNSYGIS / VIYSEGTRTFYGDSVK / GRAAETFDS: 4.35 (1 of 3 replicates).
GYTLNSYGIS / VIYGDGRRTFYGDSGK / GRAAGTFDS: nd (0 of 3 replicates).
GFTLISYGIS / VIYSDGRRTFYGDSVK / GRAAGTFDD: 3.39 (1 of 3 replicates).
GFTLNSYIIS / VIYSDGRRFFYGDSVK / GRAAGTFDS: nd (0 of 3 replicates).
GTTLNSYGIS / DIYSDGRRTFYGDSVK / GRAARTFDS: nd (0 of 3 replicates).
GFTLNSYGTS / VICSDGRRTFYGWSVK / GRAAGTFDS: nd (0 of 3 replicates).
GFTLNSYGIS / VIYSDHRRTFYIDSVK / GRAHGTFDS: nd (0 of 3 replicates).
GFFLVSYGIS / VIYSDGRRTFYGDSVK / TRAAGTFDS: 3.69 (1 of 3 replicates).
GFTLNSYLIS / VIYSDGRRTFYGDTVK / GRAAGTFDP: nd (0 of 3 replicates).
QFTLNSYPIS / VIYSDGRRTFYGDSVK / GREAGTFDS: 3.46 (1 of 3 replicates).
GFLLNSYGIS / VIYSDGRRTFYGDSVK / GRAAKHFDS: 1.54 (3 of 3 replicates).
GFTLNSYGII / IIYIDGRRTFYGDSVK / GRAAGTFDS: nd (0 of 3 replicates).
GFTLNSYMIS / VIYSDGRRTFYGDSGK / GRAAGTFDN: nd (0 of 3 replicates).
GFTLNSYGIS / MIYSTGRRTTYGDSVK / GRAAGTFDS: nd (0 of 3 replicates).
GFYNNSYTIS / VIYSDGRRTFYGDSVK / GRAAGTFDS: nd (0 of 3 replicates).
GFTLNSYGIS / VVYSDGRRTFYGDSVK / GRAAGTPIS: 3.54 (3 of 3 replicates).
GFTLNSLGIS / VIYSDGRRTFYGDSVK / GRNAGTFDF: 2.23 (3 of 3 replicates).

A selection of 3 entries from above:

The variant GFTLNSYQIS / VIYSDERRTFYGDSVK / GRHAGTFDS gave nd (0 of 3 replicates).
The variant GYTLNNYGIS / VIYSDGRRTFYGDSTK / GRAAGTFDS gave 3.65 (3 of 3 replicates).
The variant GFTLNSLGIS / VIYSDGRRTFYGDSVK / GRNAGTFDF gave 2.23 (3 of 3 replicates).

Nonspecific signal, from three strains lacking the peptide, appeared in 15% of pairings of library AAYL49, centred on 4.06 (5% of these signals below 2.83); values are not corrected for it.